Reference: paper doi:10.1101/2022.03.10.483824

Chains of the proteins cited; added tags and fusions are not shown. Lines headed by an entry give the natural chain unless they say otherwise; changes in a name come on top.
UniProt P04461: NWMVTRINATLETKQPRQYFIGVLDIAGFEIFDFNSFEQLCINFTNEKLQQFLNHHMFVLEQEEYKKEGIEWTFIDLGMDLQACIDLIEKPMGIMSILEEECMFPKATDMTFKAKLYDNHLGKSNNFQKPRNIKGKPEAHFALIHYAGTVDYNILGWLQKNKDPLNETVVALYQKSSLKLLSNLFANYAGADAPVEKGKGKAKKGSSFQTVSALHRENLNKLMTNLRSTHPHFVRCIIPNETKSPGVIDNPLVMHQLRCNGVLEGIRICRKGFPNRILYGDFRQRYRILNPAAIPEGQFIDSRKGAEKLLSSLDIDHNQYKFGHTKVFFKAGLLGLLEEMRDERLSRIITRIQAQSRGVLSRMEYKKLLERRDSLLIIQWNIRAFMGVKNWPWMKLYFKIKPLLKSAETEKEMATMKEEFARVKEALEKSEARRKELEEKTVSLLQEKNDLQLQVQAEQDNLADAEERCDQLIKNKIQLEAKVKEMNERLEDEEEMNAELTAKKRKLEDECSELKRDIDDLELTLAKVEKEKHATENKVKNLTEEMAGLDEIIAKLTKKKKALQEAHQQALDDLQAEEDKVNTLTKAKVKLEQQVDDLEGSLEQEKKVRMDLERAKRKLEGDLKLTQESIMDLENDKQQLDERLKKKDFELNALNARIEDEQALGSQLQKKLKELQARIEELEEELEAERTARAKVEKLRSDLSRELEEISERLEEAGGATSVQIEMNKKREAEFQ

Target: Full length native slow skeletal myosin II from rabbit M. soleus (rabbit) (UniProt P04461)
Assay: optical trapping

maximum AM detachment rate (kcat, at saturating ATP): 29.3 s⁻¹
Substance: Biotinylated actin filament (chicken G actin polymerised with biotinylated G actin) (from UniProt P68139 1-377) (natural protein)
